Earlier results, collected in article PMC3312455.

Target: PDGFRβ ECD (Homo sapiens) (UniProt P09619)
Experiment: SPR

**Q.** Which Kd does the source give for PDGF-BB (from UniProt P01127) here?
**A.** The Kd was 1.6 nM.
